US11613515B2, “Neuro-attenuating ketamine and norketamine compounds, derivatives thereof, and methods” (Amorsa Therapeutics, Inc., priority 2014, dated 2023)

Assay: Stability towards hydrogen exchange (NMR)
Settings: neutral and acidic pH; deuterated chloroform treated with water, hydrochloric or acetic acid

## [2H]C1([2H])CCCC(N)(c2ccccc2Cl)C1=O (stereo not shown) [compound 11]
  stability towards hydrogen exchange: stable towards hydrogen exchange at neutral and acidic pH
